{"source": "patent US20230257373A1", "about": "“QUORUM SENSING INHIBITORS AND METHODS OF USE” (priority 2020, published 2023)", "tested_on": "PluxC-gfp reporter in V. campbellii", "assay": "PluxC-gfp reporter in V. campbellii strains", "details": "Vibrio campbellii, ATCC25920, read-out: Inhibition (IC50) of the PluxC-gfp reporter, Vcamp ATCC 25920", "data": [{"smiles": "O=S(=O)(c1ccc(Br)s1)n1cccc1", "note": "[Compound 3A, 1-((5-bromothiophen-2-yl)sulfonyl)-1H-pyrrole]", "values": [{"measurement": "IC50", "result": 1.1, "unit": "µM"}]}]}
